ChEMBL document CHEMBL3108672, “Structure-activity relationship of adenosine 5'-diphosphoribose at the transient receptor potential melastatin 2 (TRPM2) channel: rational design of antagonists” (J Med Chem, 2013)

Amino acid sequences for entries named in this document (tags omitted).
UniProt O94759, whole entry: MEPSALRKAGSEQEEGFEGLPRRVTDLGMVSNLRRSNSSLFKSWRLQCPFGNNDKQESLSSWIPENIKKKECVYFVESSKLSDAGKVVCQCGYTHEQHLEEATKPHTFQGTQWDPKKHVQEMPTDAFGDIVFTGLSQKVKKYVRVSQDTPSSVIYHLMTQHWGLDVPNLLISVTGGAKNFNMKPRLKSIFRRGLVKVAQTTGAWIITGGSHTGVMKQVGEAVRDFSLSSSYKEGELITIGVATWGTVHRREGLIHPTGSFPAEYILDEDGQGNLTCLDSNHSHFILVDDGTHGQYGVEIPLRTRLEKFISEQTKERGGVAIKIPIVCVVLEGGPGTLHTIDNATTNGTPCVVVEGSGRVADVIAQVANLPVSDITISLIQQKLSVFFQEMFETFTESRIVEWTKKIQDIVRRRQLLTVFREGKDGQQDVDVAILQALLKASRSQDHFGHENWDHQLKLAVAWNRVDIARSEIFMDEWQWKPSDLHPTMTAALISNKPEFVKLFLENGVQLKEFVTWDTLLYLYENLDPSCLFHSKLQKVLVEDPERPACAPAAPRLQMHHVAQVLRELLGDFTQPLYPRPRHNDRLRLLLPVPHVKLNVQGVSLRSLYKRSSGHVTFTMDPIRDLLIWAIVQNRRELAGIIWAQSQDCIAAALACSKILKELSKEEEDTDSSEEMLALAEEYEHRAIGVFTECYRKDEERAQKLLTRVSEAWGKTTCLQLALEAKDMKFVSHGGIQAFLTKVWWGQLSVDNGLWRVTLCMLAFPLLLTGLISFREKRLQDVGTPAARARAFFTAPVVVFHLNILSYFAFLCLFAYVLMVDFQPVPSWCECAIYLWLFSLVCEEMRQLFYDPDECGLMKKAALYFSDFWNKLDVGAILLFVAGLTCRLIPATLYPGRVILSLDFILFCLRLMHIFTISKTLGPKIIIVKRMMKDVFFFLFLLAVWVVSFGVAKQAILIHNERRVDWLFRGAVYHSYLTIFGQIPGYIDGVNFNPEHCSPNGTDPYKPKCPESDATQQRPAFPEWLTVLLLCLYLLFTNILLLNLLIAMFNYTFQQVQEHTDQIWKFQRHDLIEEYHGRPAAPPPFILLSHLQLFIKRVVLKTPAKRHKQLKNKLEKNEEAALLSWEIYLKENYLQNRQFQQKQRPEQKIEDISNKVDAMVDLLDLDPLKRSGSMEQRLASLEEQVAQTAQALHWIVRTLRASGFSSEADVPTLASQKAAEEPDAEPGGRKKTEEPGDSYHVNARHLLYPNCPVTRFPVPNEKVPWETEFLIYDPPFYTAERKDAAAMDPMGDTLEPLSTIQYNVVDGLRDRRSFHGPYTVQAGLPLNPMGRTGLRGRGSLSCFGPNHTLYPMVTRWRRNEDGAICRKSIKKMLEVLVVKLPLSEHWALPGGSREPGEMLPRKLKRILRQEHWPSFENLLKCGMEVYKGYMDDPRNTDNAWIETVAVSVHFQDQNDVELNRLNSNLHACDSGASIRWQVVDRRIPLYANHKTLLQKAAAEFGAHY

Legend:
[1] = target: T1, Transient receptor potential cation channel subfamily M member 2 (Homo sapiens, UniProt O94759); assay: Antagonist activity at human TRPM2 expressed in HEK293 cells assessed as inhibition of ADPR-induced maximum outward potassium current at 900 uM at +15 mV by whole-cell patch-clamp electrophysiology; format: cell-based
In short: (§1)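 Stable clonal HEK293 line expressing human TRPM2 (with EGFP, G418-selected). Whole-cell patch clamp at room temperature; bath had 140 mM NMDG, 1 mM Ca2+, pH 7.4; KCl/EGTA pipet solution held 200 nM free Ca2+. Channel was activated by 100 μM ADPR in the pipet, and analogue was added to the same pipet solution. Read-out: maximum outward current at +15 mV from repeated ramps every 5 s over 450 s.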

[2] = target: T1, Transient receptor potential cation channel subfamily M member 2; assay: Antagonist activity at human TRPM2 expressed in HEK293 cells assessed as inhibition of ADPR-induced maximum outward potassium current at 100 uM at +15 mV by whole-cell patch-clamp electrophysiology; format: cell-based; in short: as §1

Nc1ncnc2c1ncn2[C@@H]1O[C@H](COS(=O)(=O)NC(=O)c2ccccc2O)[C@@H](O)[C@H]1O
inhibition [1]: inactive
inhibition [2]: inactive

Active and inactive are the calls of the source. No cut-off for these calls is given here.
